In patent US20110070314A1 (priority 2009, published 2011):

Tests used:
[1] = system: MDA-MB-231 (breast cancer); test: Cell survivability, Hoechst 33342 / propidium iodide staining, 24 h treatment; assay type: cell-based, human; conditions: breast cancer cells (MDA-MB-231)
u87MG (brain cancer) = test: as above; assay type: cell-based, human; conditions: brain tumor cells (u98MG as printed)
[2] = system: U-87MG orthotopic glioblastoma; conditions: model I, 1.25, 2.5 and 5 mg/kg P.O.

Substance: sodium meta arsenite
- LD50 [1]: 0.03 to 0.05 µM
- LD50 (u87MG (brain cancer)): 0.03 µM
- Side effects in terms of liver enzyme levels, body weight and lethality [2]: None of the treatments caused any side effects
